These results are taken from patent publication US5908828A, “Synthetic peptide derivatives and the salts thereof” (Hoechst Japan Limited, priority 1994, dated 1999).

This data set relates to ALPase activity in MC3T3-E1 cells promoted by rh-BMP-2. Briefly: Assay of BMP inhibiting activity (BMP-2 antagonist-like activity): ALPase activity in cultured MC3T3-E1 cells. The class given is cell-based, mouse. On the procedure: BMP-2 antagonist-like activity of the present synthetic peptide derivatives was assayed by way of cultured MC3T3-E1 cells which were established from mouse calvaria having osteoblast-like property, by Kodama et al. (Kodama, H. et al. (1981) Jpn. J Oral. Biol., vol.23, p.899). The cultured MC3T3-E1 cells were prepared according to Takuwa et al. (Takuwa, Y. et al., (1991) Biochem.
Biophys. Res. Comuni., vol. 174, p.96-101), 5×10^4 cells/cm^2of the cultured cells in serum-free α-MEM culture broth containing serum albumin were treated with various concentrations of synthetic peptide derivatives of this invention and recombinant human BMP-2 (rh-BMP-2) for 2 days so as to assay alkaline phosphatase (ALPase) activity in the cells by colorimetry on p-nitrophenyl phosphate. ALPase is often used as an indicator enzyme for differentiation and maturity of osteoblasts and chondrocytes (Pfeilschifter, J., et al., Endocrinology (1987), vol. 121, p212-218; Rodan, G. A., et al., calcium regulating hormones and bone metabolism, Elsevir Science Publishers B.V., (1992), p 183-196). […]

For the substance “rh-BMP-2: recombinant human bone morphogenetic protein 2, used as the stimulus of ALPase activity”, the “increase of ALPase activity in MC3T3-E1 cells in comparison with a control group” value (rh-BMP-2 5 ng/ml) is 3 folds. Moreover, the ALPase activity (rh-BMP-2 5 ng/ml alone, MC3T3-E1 cells, 2 days, mean ± SD, n = 4) was 892 ± 52 pmol/min.
